{"sequences": {"note": "The chains behind the UniProt entries cited, without tags or fusion partners. Residues count along the entry.", "UniProt Q9UBS5, 26-96": "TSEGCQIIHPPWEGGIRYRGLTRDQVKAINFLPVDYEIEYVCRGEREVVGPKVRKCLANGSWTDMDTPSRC"}, "source": "patent US20240376149A1", "about": "“Novel Modulators of GABABR1a” (VIB VZW, priority 2021, published 2024)", "key": {"[1]": {"biological_target": "T1, GABABR1a-SD1 (SD1-FITC-9mer complex) (Homo sapiens, UniProt Q9UBS5)", "T1 construct": "The synthetic gene encoding for residues 26-96 of the Sushi1 protein was cloned into a pFloat-SUMO vector; His-SUMO (with 3C protease site) (N, cleaved yes); made in house; host or cells: E. coli BL21(DE3)", "experiment": "Fluorescence polarization (FP) competition assay with FITC-9mer", "type": "binding", "conditions": "peptide at 50 μM; inhibition of FITC-9mer binding to SD1", "experimental": "Intrigued by the surprising results of the 5-mer, it was decided to set up a medium- to high-throughput screen to optimize the 5-mer sequence. Several assays were tested to find a reproducible, robust and cost-effective assay that is also suitable for high-throughput screening. A fluorescence polarization (FP) assay was selected. FP measurements are well-known for receptor binding assays. The assay is based on the rotational movement of fluorescently labelled molecules in solution. […] The FP assay was optimized using the FITC labelled sAPP 9-mer (FIG. 1).\nTo screen for GABABR1a binders using unlabelled test compounds, the assay was turned into a competition assay using FITC-9mer. […] To validate this inhibitor assay, the IC50 values were determined of the 17-mer, 9-mer, 5-mer as well as those from 3 negative controls: 10-mer, scrambled 17-mer and a scrambled 9-mer (FIG. 2).\nTo determine if the peptides of this application were able to disrupt the SD1-9-mer complex, each peptide (in single point or dose-response curve) tested was incubate with SD1 protein for 1 h at RT. After this initially incubation, FITC-9mer was added to the previous mix and incubated during 2 h at RT. The signal intensity was measure in an appropriate plate reader using the following settings: Number of flashes per well: 200; Excitation: F482-16; Dichroic filter: FLP 504; Emission A F530-40; Gain A: 738, Gain B: 736. The assay was conducted in a 384-well plate."}, "[2]": {"biological_target": "T2, sushi domain 1 (SD1) of GABABR1a (Homo sapiens, UniProt Q9UBS5)", "T2 construct": "The synthetic gene encoding for residues 26-96 of the Sushi1 protein was cloned into a pFloat-SUMO vector; His-SUMO (with 3C protease site) (N, cleaved yes); made in house; host or cells: E. coli BL21(DE3)", "experiment": "Isothermal titration calorimetry (ITC) direct binding assay", "excerpt": "In contrast to the FP assay, the isothermal titration calorimetry (ITC) assay is a direct binding assay.\nFor biophysical and structural biology purposes the Sushi1 protein was expressed in a bacterial expression system. The synthetic gene encoding for residues 26-96 of the Sushi1 protein was cloned into a pFloat-SUMO vector, generating a His-tagged SUMO-Sushi1 fusion protein. The construct also contained a 3C protease cleavage site to remove the His-SUMO-tag. The pFloat-SUMO-Sushi1 plasmid was transformed in BL21(DE3) cells and plated on kanamycin ([…]) containing LB agar plates. A small LB culture, supplemented with […] kanamycin, was inoculated with a single colony of BL21(DE3)(pFloat-SUMO-Sushi1) and grown overnight at 37° C. 1 liter LB cultures were subsequently inoculated with 20 ml of this preculture and grown at 37° C. until OD600 reached 0.8. At this point protein expression was induced using 0.5 mM isopropyl β-D-1-thiogalactopyranoside (IPTG). Cells were incubated further overnight at 20° C. and subsequently harvested by centrifugation (Beckman rotor 8.1000, 5000 rpm, 15 min, 4C). The pellet was resuspended in 20 mM Tris pH 7.5, 500 mM NaCl, 10 mM imidazole, 5 mM β-mercaptoethanol, 0.1 mg/mL 4-(2-aminoethyl) benzenesulfonyl fluoride hydrochloride (AEBSF), 1 μg/mL leupeptine, 50 μg/mL DNasel and 20 mM MgCl2. […]"}}}
{"compound": "CC[C@H](C)[C@H](NC(=O)[C@@H](N)CC(=O)O)C(=O)N[C@@H](Cc1c[nH]cn1)C(=O)N[C@@H](Cc1c[nH]c2ccccc12)C(=O)NCC(=O)O", "note": "[VIB_P36, DIHWG]", "values": [{"measurement": "inhibition at 50 µM", "setting": "[1]", "value": 25.5, "unit": "%"}, {"measurement": "Kd", "setting": "[2]", "value": 18.5, "unit": "µM"}]}
